# Source: patent US20110065647A1 (BIOSEARCH 2007, published 2011)
# The chains behind the UniProt entries cited, without tags or fusion partners.
# UniProt P08104, whole entry: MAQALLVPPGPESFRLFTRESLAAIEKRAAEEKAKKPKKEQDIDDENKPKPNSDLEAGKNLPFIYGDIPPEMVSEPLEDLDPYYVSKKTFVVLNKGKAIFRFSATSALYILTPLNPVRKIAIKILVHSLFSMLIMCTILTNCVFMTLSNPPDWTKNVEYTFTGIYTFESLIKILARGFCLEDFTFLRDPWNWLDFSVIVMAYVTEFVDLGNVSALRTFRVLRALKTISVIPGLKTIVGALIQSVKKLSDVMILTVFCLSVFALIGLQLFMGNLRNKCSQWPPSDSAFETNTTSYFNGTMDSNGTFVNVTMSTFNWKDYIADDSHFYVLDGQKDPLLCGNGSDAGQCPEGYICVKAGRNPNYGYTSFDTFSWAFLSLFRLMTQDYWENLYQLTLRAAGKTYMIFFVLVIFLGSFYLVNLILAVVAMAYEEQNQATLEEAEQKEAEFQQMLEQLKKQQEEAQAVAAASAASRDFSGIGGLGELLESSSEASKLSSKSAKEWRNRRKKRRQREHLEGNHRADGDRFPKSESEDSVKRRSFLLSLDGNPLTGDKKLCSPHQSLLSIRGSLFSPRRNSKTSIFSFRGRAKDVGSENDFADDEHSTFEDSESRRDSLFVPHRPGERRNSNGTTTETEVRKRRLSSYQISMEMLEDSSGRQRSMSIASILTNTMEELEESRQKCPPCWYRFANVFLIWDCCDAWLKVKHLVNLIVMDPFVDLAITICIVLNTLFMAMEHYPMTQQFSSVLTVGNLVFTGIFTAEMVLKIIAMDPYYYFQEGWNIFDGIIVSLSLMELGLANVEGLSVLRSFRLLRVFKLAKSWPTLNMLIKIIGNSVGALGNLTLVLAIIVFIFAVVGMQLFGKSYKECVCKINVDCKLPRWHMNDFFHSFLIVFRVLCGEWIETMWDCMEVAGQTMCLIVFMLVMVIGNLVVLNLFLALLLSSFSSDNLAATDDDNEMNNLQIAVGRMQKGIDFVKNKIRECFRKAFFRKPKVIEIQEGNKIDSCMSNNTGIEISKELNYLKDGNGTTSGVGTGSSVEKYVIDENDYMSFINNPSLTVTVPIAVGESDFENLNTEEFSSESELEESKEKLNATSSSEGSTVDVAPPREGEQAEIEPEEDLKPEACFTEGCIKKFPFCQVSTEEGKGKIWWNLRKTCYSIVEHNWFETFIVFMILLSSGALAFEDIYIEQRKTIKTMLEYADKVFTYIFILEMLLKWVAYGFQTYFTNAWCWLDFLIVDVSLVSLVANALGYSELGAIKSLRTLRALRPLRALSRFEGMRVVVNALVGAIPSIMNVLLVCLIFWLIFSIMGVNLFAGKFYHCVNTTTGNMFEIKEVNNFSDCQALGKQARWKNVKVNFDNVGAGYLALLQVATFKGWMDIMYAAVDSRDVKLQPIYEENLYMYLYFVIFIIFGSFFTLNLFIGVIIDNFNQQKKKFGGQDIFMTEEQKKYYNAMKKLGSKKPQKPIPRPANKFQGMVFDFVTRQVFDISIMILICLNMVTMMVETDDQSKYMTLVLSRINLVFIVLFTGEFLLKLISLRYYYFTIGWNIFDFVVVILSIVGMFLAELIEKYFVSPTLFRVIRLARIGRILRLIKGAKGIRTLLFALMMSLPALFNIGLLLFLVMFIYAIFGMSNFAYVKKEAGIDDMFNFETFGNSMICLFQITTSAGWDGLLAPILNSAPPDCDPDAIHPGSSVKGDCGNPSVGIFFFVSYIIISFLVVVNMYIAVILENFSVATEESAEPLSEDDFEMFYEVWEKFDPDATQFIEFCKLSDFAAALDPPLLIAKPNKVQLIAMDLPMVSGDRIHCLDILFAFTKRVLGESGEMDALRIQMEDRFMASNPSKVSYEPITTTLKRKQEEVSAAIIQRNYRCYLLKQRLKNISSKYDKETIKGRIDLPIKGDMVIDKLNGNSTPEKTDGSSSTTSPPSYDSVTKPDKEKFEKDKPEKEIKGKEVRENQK
# Molecular target: rNaV1.3 channels (rat, UniProt P08104 1-1951)
# Assay: cell-based or functional assay
binder,measurement,value
"ACKGLFVTCTPGKDECCPNHVCSSKHKWCKYKT (C-terminal amidation; three disulphide bridges (probably C1-C4, C2-C5, C3-C6)) [Peptide D]","IC50 Nav1.3 (µM); inhibition of channel current, patch clamp",0.16 µM
